Literature values in patent US20060067952A1, “Low oil emulsion compositions for delivering taxoids and other insoluble drugs” (SD Pharmaceuticals, Inc., priority 2004, published 2006).

For “5β,20-epoxy-1,2α,4,7β,10β,13α-hexahydroxytax-11-en-9-one 4,10-diacetate 2-benzoate 13-ester with (2R,3S)-N-benzoyl-3-phenylisoserine [Paclitaxel]”, the “Solubility in water (descriptive)” value is listed as “insoluble in water”.
